# US20090035258A1, “METHODS OF TREATING CANCER BY ADMINISTERING HUMAN IL-18 COMBINATIONS” (priority 2007, published 2009)
# System: MOPC315 murine plasmocytoma transfected with ErbB2 (HER2)
# Assay: IL-18 and HERCEPTIN combination in mouse plasmacytoma model
# Format: in vivo
# Conditions: study MOPC.D3J03; HERCEPTIN alone
# Protocol: Both the MOPC315.D3j005 and MOPC.D3j03 studies were analyzed to evaluate effect of murine IL-18 (SEQ ID NO:2) combination therapy with HERCEPTIN® on the growth of murine plasmocytoma. For this experiment we had to transfect MoPC315 cells with ErbB2 (HER2). For transfection, we used 1.5 ug ErbB2 expression vector (BioCat—108912—cdna3.1(−) ErB2) in a 6-well dish, as described using liposomal transfection with Lipofectamine™ and Optimem™ media from Gibco. Selective pressure neomycin (450 ug/ml G418 Sigma G6816) was added to the cultures after 2 days. Initial positive populations were selected by fluorescent microscopic inspection of in situ cultures stained with Alexafluor488 labeled HERCEPTIN® monoclonal antibody and cloned by limiting dilution (206434 p 70-72). D3 ErbB2 expression tested with Alexafluor488 labeled HERCEPTIN® flow cytometry. MOPC.D3 cell line was selected and used for evaluation of HERCEPTIN® and IL-18 anti-tumor efficacy.
# This study employed the combination of mIL-18 (SEQ ID NO:2) and HERCEPTIN®, an anti-Her2/neu receptor antibody, with the goal to use this therapy in breast cancer in a clinical trial. Combination therapy was tested in the well established murine plasmocytoma cell line, MOPC315. The tumor line was obtained from ATCC and transduced with the Her2 receptor in-house. […]
# The data are expressed as mean+/−SD (FIG. 17), and as median+/−range (FIG. 18). […]
substance,measurement,value
HERCEPTIN®: an anti-Her2/neu receptor antibody,anti-tumor activity as monotherapy,minimal activity
